Patent US20230312577A1, “DUAL KINASE-BROMODOMAIN INHIBITORS” (MONASH UNIVERSITY, priority 2020, published 2023)

Legend:
[1] = target: PI3K; experiment: PI3K enzyme activity assay (luminescence, ATP consumption, Kinase-Glo); details: read-out: PI3K Enzyme Activity Assay IC50; 10 μM ATP, 180 μM phosphatidyl inositol, 60 min
Method: PI3K activity was determined using a luminescence assay measuring ATP consumption as described previously (J.-A. Pinson, Z. Zheng, M. S. Miller, D. K. Chalmers, I. G. Jennings, P. E. Thompson, L-Aminoacyl-triazine derivatives are isoform-selective PI3Kβ inhibitors that target nonconserved Asp862 of PI3Kb, ACS Med. Chem. Lett. 4 (2013) 206-210). PI3K enzyme activity was determined in 25 μl of 20 mM HEPES pH 7.5, 5 mM MgCl2 with 180 μM phosphatidyl inositol and 10 μMATP. After a 60 min incubation at room temperature the reaction was stopped by the addition of Kinase-Glo (Promega) followed by a further 15 min incubation. Luminescence was then read using a Fluostar plate reader (BMGLabtech).
Inhibitors were diluted in 20% (v/v) DMSO at the indicated concentrations in order to generate a concentration versus inhibition of enzyme activity curve which was then analysed using GraphPad Prism version 8.00 for Windows, (GraphPad Software, San Diego California USA) in order to calculate the IC50. Standard deviations for the calculated IC50's are within 25% of the mean.

[2] = test system: OPM2 cells; experiment: Cell proliferation assay (ViaLight, cellular ATP); details: read-out: Cell Proliferation Assay GI50, 5 days, 5 μM to 1 nM
Method: OPM2 cells (1×10^3) were plated in a 96 well plate. Test compounds were added to cells at final concentrations ranging from 5 μM to 1 nM. They were incubated for 5 days before they were analysed using ViaLight luminescence-based proliferation assays which detect cellular ATP, as per the manufacturer's instructions. All samples were prepared in technical triplicates. Data analysis was performed in GraphPad Prism version 7.00 for Mac OS X, (GraphPad Software, San Diego California USA) in order to calculate the GI50.

[3] = target: GST-BRD4 (binding domain 1, amino acids 44-168) (Homo sapiens, UniProt O60885); experiment: Bromodomain binding assay (FRET); details: read-out: Bromodomain Binding Assay (BRD4) IC50; BRD4 binding domain 1, tetracetylated histone 4 peptide
Method: Inhibition of bromodomain binding was measured using a FRET (fluorescence resonance energy transfer) based assay. […] In the presence of the two detection reagents, streptavidin D2 and anti-GST-Eu (CisBio) binding trig-gers a FRET signal detected by fluorescence at 665 nm as measured using a Pherastar reader (BMG Labtech). Data was analysed using GraphPad Prism version 8.00 for Windows, (GraphPad Software, San Diego California USA) in order to calculate the IC50. Standard deviations for the calculated IC50's are within 25% of the mean.

For `CC(=O)N1c2ccc(-c3ccc(CNC(=O)CNC(=O)c4cn5cc(-c6cnc(N)nc6)nc(N6CCOCC6)c5n4)s3)cc2CCC1C` (stereo not drawn), the IC50 [1] was < 100 nM, the GI50 [2] was 100 to 500 nM and the IC50 [3] was 100 to 500 nM.
